Compound activity (PubChem)
ALDH1A1 inh – ALDH1A1 (human) enzyme inhibition | P00352 | Purified ALDH1A1, NADH fluorescence, propionaldehyde substrate | Potency, µM (titrated, usually from 75.3 µM), without a hit: top-dose activity, negative = inhibition, hits mostly inhibitors | 220,000 tested, 7.3% active | AID 1030; active means well fitted inhibition curve with a large enough effect, not every such curve was filed as active; inconclusive means small, poorly fitted or top-dose-only effect, or another doubt; inactive means no such curve, though single readings can be large or run the other way;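 further: potency means the concentration at half of the fitted maximal effect; plate controls were no enzyme wells and a reference inhibitor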
miR-21 reporter – raises the signal of a miR-21 reporter | HeLa miR-21 FLuc reporter, luciferase, 48 h | Potency, µM (highest dose often 38.3 µM), inactives show at the highest dose reporter change, positive = more light | 340,000 tested, under 10 active | AID 2288; active = well fitted rising curve with a large enough effect; inconclusive = small, poorly fitted or top-dose-only effect; inactive = no such curve, though single readings can be large or run the other way;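 note: % of control where 0% means no effect; miR-21 action dims this reporter so a rising signal means less miR-21 action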
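HeLa cells stably expressing CMV-driven firefly luciferase with a downstream miR-21 binding sequence, endogenously expressing miR-21, were treated with titrations (up to about 40uM final) for 48 hours at 37 degree Celsius. Luciferase luminescence was read after lysis.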
KDM4E inh – inhibitors of human JMJD2E histone demethylase | B2RXH2 | JMJD2E catalytic domain, FDH-coupled NADH fluorescence (FDH is formaldehyde dehydrogenase) | Potency, µM (doses to about 57.1 µM), inactives show at the highest dose activity change, negative = inhibition, hits mostly inhibitors | 230,000 tested, 1.6% active | AID 2147; active means well fitted inhibition curve with a large enough effect, not every such curve was filed as active; inconclusive means small, poorly fitted or top-dose-only effect, or another doubt; inactive means no such curve, though single readings can be large or run the other way;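 further: potency means the concentration at half of the fitted maximal effect; 0% = wells with enzyme and -100% = buffer wells without enzyme; nearly all actives have a fitted effect of over 50% in size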
G9a inh – blocks human histone lysine methyltransferase G9a | Q96KQ7 | G9a H3K9 monomethylation, AlphaScreen, 2 h | Potency, µM (top dose mostly 102 µM), for inactives: top-dose activity, negative = inhibition, hits mostly inhibitors | 350,000 tested, 8.8% active; further: potency means the concentration at half of the fitted maximal effect; on the % scale 0 is the no-effect control and ±100 the full control effect; nearly all actives have a fitted effect of over 75% in size
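AlphaScreen detection with an anti-monomethyl H3K9 antibody quantified product after a 2 h room-temperature reaction containing 500 nM biotinylated H3K9 peptide, 20 µM SAM and 20 nM enzyme, which had been preincubated 15 min with compound.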
Sfp inh – inhibitors of Bacillus subtilis Sfp phosphopantetheinyl transferase. Q9F4F7. Biochemical Sfp PPTase activity, qHTS. Potency, µM, inactives show max response, negative = inhibition, most hits filed as inhibitors. 3.5% of 310,000 active. AID 1490; active = well fitted inhibition curve with a large enough effect; inconclusive = small, poorly fitted or top-dose-only effect, or another doubt; inactive = no such curve, though single readings can be large or run the other way;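 also: the enzyme is Sfp with the accession as filed and its product quenches rhodamine fluorescence; potency is read from the fitted curve at half-maximal effect; 0% = enzyme reaction without inhibitor and -100% = no enzyme wells; top concentration of the series not given in the record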
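Buffer: 50 mM Hepes-Na pH 7.6, 10 mM MgCl2, 0.01% Nonidet P-40, 0.01% BSA. Enzyme 15 nM, pre-exposed to compound 15 min; substrates then added and fluorescence change tracked over 30 min.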
Lamin A splicing – changes lamin A minigene splicing in HeLa cells; HeLa LMNA splicing GFP/RFP minigene ratio, 48 h; Potency, µM (highest dose often 46.1 µM), for inactives: at the highest dose ratio change, negative = inhibition, most hits filed as inhibitors; 200,000 tested, 0.01% active; active means well fitted inhibition curve with a large enough effect in the signal ratio, with a control signal flat, not every such curve was filed as active; inconclusive means small, poorly fitted or top-dose-only effect, or effect the other way, or a change in a side signal; the % refers to the signal ratio; further: potency means the concentration at half of the fitted maximal effect; on the % scale 0 is the no-effect control and ±100 the full control effect
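S3 HeLa cells stably expressing lamin A-EGFP splicing minigene plus DsRed2, 600 cells/well, 48 h compound exposure at 37C. Laser-scanning cytometry; analysed as GFP (500-530 nm)/RFP (575-640 nm) total intensity ratio; 0.5% DMSO vehicle.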
Starred values were filed as active, the others as inactive; ? = inconclusive; . = no result given; ! = a repeat was not active; [ ] = remark or other dose. In the library only some 13% were active in any assay of this set; here they are far more common. Unless noted, the call rests on the fitted dose curve; in most records, active means well fitted curve in the direction sought with a large enough effect; inconclusive means small, poorly fitted or top-dose-only effect, or another doubt; inactive means no such curve, though single readings can be large; an effect the other way counts as inactive or inconclusive.

Start of the data: the first 3 records, to show the layout:
1: CCCN(CC(=O)Nc1ccccc1OC)C(=O)c1cc(-c2ccccc2)nn1-c1ccccc1
2: Fc1ccccc1N1CCN(CC2CCCCC2)CC1
3: Fc1ccccc1N1CCN(Cc2cccnc2)CC1

Screen / compound no.,1,2,3
ALDH1A1 inh,.,.,?
miR-21 reporter,.,-7%,-3%
KDM4E inh,.,.,?
G9a inh,9%[2.33 µM],19%[0.501 µM],28µM*
Sfp inh,.,-7%,-4%
Lamin A splicing,.,.,6%

The list itself (from the top)
1: CCCN(CC(=O)Nc1ccccc1OC)C(=O)c1cc(-c2ccccc2)nn1-c1ccccc1
2: Fc1ccccc1N1CCN(CC2CCCCC2)CC1
3: Fc1ccccc1N1CCN(Cc2cccnc2)CC1
4: c1ccc(-c2nc(-n3ccnc3)nc(-n3ccnc3)n2)cc1
5: c1ccc(CN2CCN(c3nc(-c4ccccc4)nc(-n4ccnc4)n3)CC2)cc1
6: Cc1nn(-c2ccccc2)c2sc(C(=O)Nc3cccc(Br)c3)cc12

Screen / compound no.,1,2,3,4,5,6
ALDH1A1 inh,.,.,?,8%,-4%,.
miR-21 reporter,.,-7%,-3%,16%,9%,?
KDM4E inh,.,.,?,-2%,-1%,.
G9a inh,9%[2.33 µM],19%[0.501 µM],28µM*,?,?,4%[59 µM]
Sfp inh,.,-7%,-4%,?,32µM*,.
Lamin A splicing,.,.,6%,?,?,.

7: C[N+](C)(CCOc1ccccc1)Cc1ccccc1 (tested in a mixture with another compound)
8: CC(C)(C)CC(C)(C)c1ccc(OCCOCC[N+](C)(C)Cc2ccccc2)cc1
9: C[N+](C)(CCCOc1ccccc1)c1ccccc1
10: CC(C)(C)CC(C)(C)c1ccc(OCCO)cc1
11: CCCS(=O)(=O)N1CCCC(C(=O)Nc2ccc3c(c2)CCC3)C1 (stereo unspecified)
12: CCC(C)NC(=O)c1cc2c(=O)n(CC)c3ccccc3c2s1 (stereo unspecified)

Screen / compound no.,7,8,9,10,11,12
ALDH1A1 inh,.,.,-8%[20.9 µM],-5%,.,.
miR-21 reporter,0%,.,.,.,-7%,-8%
KDM4E inh,.,0%,-8%[25.5 µM],.,.,.
G9a inh,40µM*,?,6%[21.5 µM],22%[59 µM],4%[12.7 µM],16%
Sfp inh,-11%,40µM*!,37%,-9%,1%,12%
Lamin A splicing,.,.,?,?,.,.

13: Nc1ccc(N2CCN(C(=O)c3cccs3)CC2)cc1
14: Cc1ccc(N2CCN(C(=O)N3CCCC3)CC2)cc1C
15: CC(=O)Nc1ccc(N2CCN(C(=O)c3cccs3)CC2)cc1
16: Cc1ccc(N2CCN(C(=O)c3cccs3)CC2)cc1C
17: O=C(O)c1ccccc1CSc1nnc2c(n1)[nH]c1ccccc12
18: O=C(O)CSc1nnc2c(n1)[nH]c1ccccc12

Screen / compound no.,13,14,15,16,17,18
ALDH1A1 inh,?,-5%,8%,.,-12%,2%
miR-21 reporter,-10%,-1%,-8%,-27%,2%,-5%
KDM4E inh,-16%,-2%,6%,.,4%,-6%
G9a inh,1.4µM*,-21%,8%,-8%[0.501 µM],.,?
Sfp inh,-15%,13%,20%,50µM*,56µM*,50µM*
Lamin A splicing,?,0%,-2%,.,7%[46 µM],?

19: O=C(CSc1nnc2c(n1)[nH]c1ccccc12)OCc1ccccc1
20: COCc1ccc(CN2CCCC(C(=O)Nc3ccc(-c4cscn4)cc3)C2)o1 (stereo unspecified)
21: CCOCCOC(=O)CCSc1n[nH]c(=O)[nH]c1=O
22: CCCCCOC(=O)CSc1n[nH]c(=O)[nH]c1=O
23: COc1ccc([C@@H]2CC(=O)c3c(O)cc(O[C@@H]4O[C@H](CO)[C@@H](O)[C@H](O)[C@H]4O[C@@H]4O[C@@H](C)[C@H](O)[C@@H](O)[C@H]4O)cc3O2)cc1
24: O=C(O)c1oc(C(=O)O)c(C(=O)O)c1C(=O)O

Screen / compound no.,19,20,21,22,23,24
ALDH1A1 inh,-7%,.,-2%,11%,.,9%[13.5 µM]
miR-21 reporter,-1%,-8%,-3%,-1%,.,.
KDM4E inh,-2%,.,1%,-5%,.,.
G9a inh,-10%[59 µM],4%[59 µM],50µM*,11%[12.7 µM],.,.
Sfp inh,12%,4%,-21%,20%,-15%,.
Lamin A splicing,-1%,.,-3%,12%,.,.

25: O=C(NCCc1csc(-c2ccc(C(F)(F)F)cc2)n1)C(=O)Nc1cc(F)ccc1F
26: O=S(=O)(c1ccc(Br)s1)N1CCN(c2ccc(F)cc2)CC1
27: COc1ccc(C(=O)C2CC2c2ccc3c(c2)OCO3)cc1 (stereo unspecified)
28: COc1cccc(-c2cc(C(F)(F)F)nc(NCCc3ccc(OC)c(OC)c3)n2)c1
29: COc1ccc(C(=O)CCNc2cccc(Cl)c2)cc1
30: CCCOc1ccc(C(=O)CCNc2cccc(Cl)c2)cc1

Screen / compound no.,25,26,27,28,29,30
ALDH1A1 inh,.,.,-4%,.,3.2µM*,7.9µM*
miR-21 reporter,-2%,2%,2%,9%,-70%,-23%
KDM4E inh,.,.,-5%,.,-5%,-6%
G9a inh,0%[59 µM],40µM*,55%,32%[59 µM],6%[59 µM],23%[59 µM]
Sfp inh,.,50µM*,-5%,.,25%,18%
Lamin A splicing,?,.,?,.,-3%,.

31: Cc1nc2ccccc2c(=O)[nH]1
32: Cc1nc2c(O)cccc2c(=O)[nH]1
33: CCNc1ncc2nc(-c3ccc(Cl)cc3)c(=O)n(CCC#N)c2n1
34: Cc1ccc(OCC(=O)N2N=C(c3ccncc3)CC2(O)C(F)(F)F)cc1C (stereo unspecified)
35: O=C(COc1ccccc1)N1N=C(c2cccnc2)CC1(O)C(F)(F)F (stereo unspecified)
36: COc1ccc(-c2nc3c(c4c2C[C@H](c2ccccc2)OC4)CN(S(=O)(=O)c2ccc(NC(C)=O)cc2)CC3)c(C)c1

Screen / compound no.,31,32,33,34,35,36
ALDH1A1 inh,6%,-7%,?,.,?,0.45µM*
miR-21 reporter,-2%,.,.,6%,-16%,.
KDM4E inh,-2%,13µM*,.,-4%,3%,5%[11.4 µM]
G9a inh,4%[59 µM],.,-28%[0.501 µM],33%,50µM*,.
Sfp inh,16%,56µM*,25%,23%,7%,8%
Lamin A splicing,3%,.,-6%,.,?,-1%[9.22 µM]

37: C=CCNC(=O)N1CCc2nc(-c3ccc(OC)cc3C)c3c(c2C1)CO[C@@H](c1ccccc1)C3
38: COC(=O)c1ccccc1S(=O)(=O)N1CCc2nc(-c3ccc(OC)cc3C)c3c(c2C1)CO[C@@H](c1ccccc1)C3
39: CCCCS(=O)(=O)N1CCc2nc(-c3ccc(OC)cc3C)c3c(c2C1)CO[C@@H](c1ccccc1)C3
40: Cc1c(Cl)cn2c(=O)cc(CN3CCN(c4ccc(F)cc4)CC3)nc2c1Cl
41: Cc1scc(CN2CCN(c3ccc(F)cc3)CC2)c1C
42: CCC(CC)C(=O)Nc1ccc2nc(SCC(=O)N3CCc4ccccc43)sc2c1

Screen / compound no.,37,38,39,40,41,42
ALDH1A1 inh,?,4µM*,0.45µM*,-7%,.,.
miR-21 reporter,.,.,.,-5%,3%,24%
KDM4E inh,8%[11.4 µM],-2%[11.4 µM],-5%[11.4 µM],-4%,.,.
G9a inh,.,.,.,50µM*,?,7%[59 µM]
Sfp inh,7%,-12%,4%,?,.,.
Lamin A splicing,?,-5%[9.22 µM],?,.,.,17%[46 µM]

43: C/C(Cl)=C\CSc1nnc2n(N)c(=O)c3ccccc3n12
44: COc1ccc(OC)c(CN2CCN(CC(=O)Nc3ccccc3C(=O)NC3CC3)CC2)c1
45: CC(C)NC(=S)N/N=C/c1cc(Br)ccc1O
46: COc1ccc([N+](=O)[O-])cc1NS(=O)(=O)c1ccc(Cl)c(C(=O)Nc2sc3c(c2C#N)CCCCC3)c1
47: CCOC(=O)CNC(=O)C1CCC(CNS(=O)(=O)c2cccc3nsnc23)CC1 (stereo unspecified)
48: O=C(C1CCC(CNS(=O)(=O)c2cccc3nsnc23)CC1)N1CC=C(c2ccccc2)CC1 (stereo unspecified)

Screen / compound no.,43,44,45,46,47,48
ALDH1A1 inh,18µM*,.,?,?,.,18µM*
miR-21 reporter,-14%,.,0%,0%,1%,21%
KDM4E inh,4%,.,25µM*,-9%,.,-9%
G9a inh,-24%[0.0925 µM],11%[12.7 µM],3%[59 µM],-31%,.,89µM*
Sfp inh,-5%,.,7%,21%,1%,-4%
Lamin A splicing,-8%,.,?,.,.,3%
